{"source": "patent US4117117A", "about": "“Tridecapetide having gastrin effect” (Max Planck-Gesellschaft zur Forderung der Wissenschaften, priority 1976, dated 1978)", "assay": "inactivation by the liver"}
{"substance": "L-leucyl-L-glutamyl-L-glutamyl-L-glutamyl-L-glutamyl-L-glutamyl-L-ananyl-L-tyrosyl-glycyl-L-tryptophyl-L-leucyl-L-asparagyl-L-phenylalanineamide [11-leucine-minigastrin]", "values": [{"measurement": "inactivation by the liver", "value": "only slowly inactivated"}]}
